From patent US6723841B2, “Corticotropin-releasing factor2 receptors” (priority 1994, dated 2004)

Target: T1, human CRF1 receptor (Homo sapiens, UniProt P34998)
T1 construct: expressed in transfected cells
T1 sequence (P34998 24-415): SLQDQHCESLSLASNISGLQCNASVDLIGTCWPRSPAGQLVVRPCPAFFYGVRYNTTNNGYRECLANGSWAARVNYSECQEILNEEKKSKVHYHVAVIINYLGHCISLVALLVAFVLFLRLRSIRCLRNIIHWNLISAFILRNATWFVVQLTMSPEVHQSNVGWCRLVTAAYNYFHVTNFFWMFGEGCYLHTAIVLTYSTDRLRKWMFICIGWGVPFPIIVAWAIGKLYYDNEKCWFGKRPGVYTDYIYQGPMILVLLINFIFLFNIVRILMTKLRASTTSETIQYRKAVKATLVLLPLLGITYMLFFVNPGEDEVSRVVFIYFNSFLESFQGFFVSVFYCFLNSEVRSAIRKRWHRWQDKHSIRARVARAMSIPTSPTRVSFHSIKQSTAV
Assay: cAMP assay (adenylate cyclase stimulation) in cells transfected with CRF1 receptor
Format: cell-based
Conditions: read-out: effective concentration of one-half maximal adenylate cyclase stimulation (EC50), human CRF1 receptor, cAMP production

Substance: oCRF
- EC50: 0.01 µM
